Drawing on BindingDB's records for 2913311, this text covers IC50 for 7 molecules.

The chains behind the UniProt entries cited, without tags or fusion partners. Residues count along the entry.
UniProt P22303, 32-614 limits assumed: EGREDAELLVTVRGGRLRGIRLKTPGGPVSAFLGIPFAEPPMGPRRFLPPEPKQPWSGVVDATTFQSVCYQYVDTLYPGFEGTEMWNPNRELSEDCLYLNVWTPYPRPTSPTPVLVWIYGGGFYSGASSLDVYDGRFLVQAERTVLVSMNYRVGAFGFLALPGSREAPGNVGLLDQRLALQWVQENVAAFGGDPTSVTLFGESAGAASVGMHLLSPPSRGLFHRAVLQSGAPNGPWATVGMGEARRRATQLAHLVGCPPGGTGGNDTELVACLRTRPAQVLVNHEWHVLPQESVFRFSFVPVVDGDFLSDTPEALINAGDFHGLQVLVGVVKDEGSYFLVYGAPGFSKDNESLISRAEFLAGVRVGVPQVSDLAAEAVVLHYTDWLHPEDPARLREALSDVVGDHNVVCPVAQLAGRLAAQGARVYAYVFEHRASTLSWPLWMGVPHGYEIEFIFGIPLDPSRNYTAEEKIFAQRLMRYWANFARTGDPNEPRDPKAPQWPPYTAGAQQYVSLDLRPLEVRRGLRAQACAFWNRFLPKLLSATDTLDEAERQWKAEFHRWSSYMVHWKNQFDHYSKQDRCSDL

By IC50 is commonly meant the point on the concentration scale where inhibition reaches its midpoint.

For one test, the target named is T1, Acetylcholinesterase (Homo sapiens, UniProt P22303). Description: ASSAY_NAME: ChEBML_28162 DESCRIPTION: Concentration of compound that reversibly inhibits acetylcholinesterase (AChE) by 50 %.
`C#CCCCC[n+]1ccc(CN=O)cc1` had an IC50 of 305 µM.

A further test deals with T1, Acetylcholinesterase. In words: ASSAY_NAME: ChEMBL_28163 (CHEMBL644118) DESCRIPTION: Reversible inhibition of acetylcholinesterase (AChE) by 50 % in human erythrocytes.
`CC#CC(C)(C)OC[n+]1ccn(C)c1CN=O` had an IC50 of 175 µM.
Same read-out and setting: in the case of `C#CCCCC[n+]1ccn(COC)c1CN=O` it was 185 µM.
Molecule `CC#CC(C)OC[n+]1ccn(C)c1CN=O` (configuration not stated) came in with an IC50 of 144 µM. The IC50 values of the last two molecules are within 1.5-fold of each other.
On to `C#CC1(OC[n+]2ccn(C)c2CN=O)CCCC1`, for which the IC50 was found to be 24.2 µM.
On the same count and under the same terms, in the case of `C#CC(C)(C)OC[n+]1ccn(C)c1CN=O` it was 24.2 µM; in that of `C#CCCOC[n+]1ccn(C(C)(C)C)c1CN=O`, 339 µM.
